Reference: patent US8927500B2, “Peptidomimetic macrocycles” (Aileron Therapeutics, Inc., priority 2012, dated 2015)

Legend:
p21 = test: P21 ELISA assay in SJSA1 cells; assay type: cell-based, Human; settings: for p21 0.3 uM: 0.3 uM peptide; for p21 1 uM: 1 uM peptide; for p21 3 uM: 3 uM peptide; for p21 10 uM: 10 uM peptide; for p21 30 uM: 30 uM peptide
RKO cells = test: Cell viability assay (MTT), RKO; settings: read-out: RKO EC50 (72 h)

SMILES | p21 0.3 uM (p21) | p21 1 uM (p21) | p21 3 uM (p21) | p21 10 uM (p21) | p21 30 uM (p21) | EC50 (RKO cells) [µM]
CC(=O)N[C@@H](C)C(=O)N[C@@H](C)C(=O)N[C@@H](CC(C)C)C(=O)N[C@H](C(=O)N[C@@H](Cc1ccccc1)C(=O)N[C@]1(C)CCCCCCC=CCCC[C@@](C)(C(=O)N[C@@H](CO)C(=O)N[C@@H](C)C(=O)N[C@@H](C)C(=O)N[C@@H](C)C(=O)N[C@H](C)C(N)=O)NC(=O)[C@H](CC2CCC2)NC(=O)[C@H](CCC(N)=O)NC(=O)[C@H](C)NC(=O)[C@H](Cc2c[nH]c3ccccc23)NC(=O)[C@H](Cc2ccc(O)cc2)NC(=O)[C@H](CCC(=O)O)NC1=O)[C@@H](C)O (single isomer, unassigned) [compound 359] | 1163.29 | 1508.79 | 1780.29 | 2067.67 | 2479.29 | 15 to 30
CC(=O)N[C@@H](C)C(=O)N[C@@H](CC(C)C)C(=O)N[C@H](C(=O)N[C@@H](Cc1ccccc1)C(=O)N[C@]1(C)CCCCCCC=CCCC[C@@](C)(C(=O)N[C@@H](CO)C(=O)N[C@@H](C)C(=O)N[C@@H](C)C(=O)N[C@@H](C)C(=O)N[C@H](C)C(N)=O)NC(=O)[C@H](CC2CCC2)NC(=O)[C@H](CCC(N)=O)NC(=O)[C@H](C)NC(=O)[C@H](Cc2c[nH]c3ccccc23)NC(=O)[C@H](Cc2ccc(O)cc2)NC(=O)[C@H](CCC(=O)O)NC1=O)[C@@H](C)O (single isomer, unassigned) [compound 357] | 539 | 777 | 1080 | 1362 | 1177 | < 5
CC(=O)N[C@@H](C)C(=O)N[C@@H](CC(C)C)C(=O)N[C@H](C(=O)N[C@@H](Cc1ccccc1)C(=O)N[C@]1(C)CCCCCCC=CCCC[C@@](C)(C(=O)N[C@@H](CO)C(=O)N[C@@H](C)C(=O)N[C@@H](C)C(=O)N[C@H](C)C(N)=O)NC(=O)[C@H](CC2CCC2)NC(=O)[C@H](CCC(N)=O)NC(=O)[C@H](C)NC(=O)[C@H](Cc2c[nH]c3ccccc23)NC(=O)[C@H](Cc2ccc(O)cc2)NC(=O)[C@H](CCC(=O)O)NC1=O)[C@@H](C)O (single isomer, unassigned) [compound 355] | 191 | 688 | 1122 | 1223 | 1519 | 15 to 30
CC(=O)N[C@@H](C)C(=O)N[C@@H](C)C(=O)N[C@@H](CC(C)C)C(=O)N[C@H](C(=O)N[C@@H](Cc1ccccc1)C(=O)N[C@]1(C)CCCCCCC=CCCC[C@@](C)(C(=O)N[C@@H](CO)C(=O)N[C@@H](C)C(=O)N[C@@H](C)C(=O)N[C@@H](C)C(=O)N[C@H](C)C(N)=O)NC(=O)[C@H](CC2CCC2)NC(=O)[C@H](CCC(N)=O)NC(=O)[C@H](C)NC(=O)[C@H](Cc2c[nH]c3ccccc23)NC(=O)[C@H](Cc2ccc(O)cc2)NC(=O)[C@H](CCC(=O)O)NC1=O)[C@@H](C)O (single isomer, unassigned) [compound 358] | 252 | 321 | 434 | 609 | 1192 | 15 to 30
CC(=O)N[C@@H](CC(C)C)C(=O)N[C@H](C(=O)N[C@@H](Cc1ccccc1)C(=O)N[C@]1(C)CCCCCC/C=C/CCC[C@@](C)(C(=O)N[C@@H](C)C(=O)N[C@@H](C)C(=O)N[C@@H](C)C(=O)N[C@@H](C)C(=O)N[C@@H](C)C(=O)N[C@H](C)C(N)=O)NC(=O)[C@H](CC2CCC2)NC(=O)[C@H](CCC(N)=O)NC(=O)[C@H](CO)NC(=O)[C@H](Cc2c[nH]c3ccccc23)NC(=O)[C@H](Cc2ccc(O)cc2)NC(=O)[C@H](CCC(=O)O)NC1=O)[C@@H](C)O [compound 351] | 1350.67 | 1710.67 | 2030.92 | 2190.67 | 2668.54 | 5 to 15
CC(=O)N[C@@H](CC(C)C)C(=O)N[C@H](C(=O)N[C@@H](Cc1ccccc1)C(=O)N[C@]1(C)CCCCCCC=CCCC[C@@](C)(C(=O)N[C@@H](C)C(=O)N[C@@H](Cc2c[nH]cn2)C(=O)N[C@@H](Cc2ccccc2)C(=O)N[C@@H](C)C(N)=O)NC(=O)[C@H](CC(C)C)NC(=O)[C@H](CCC(N)=O)NC(=O)[C@H](C)NC(=O)[C@H](Cc2c[nH]c3ccccc23)NC(=O)[C@H](Cc2ccc(O)cc2)NC(=O)[C@H](C)NC1=O)[C@@H](C)O [compound 50] |  |  |  |  |  | < 5
CCCC[C@H](NC(=O)[C@H](C)NC(=O)[C@H](C)NC(=O)[C@]1(C)CCCC=CCCCCCC[C@@](C)(NC(=O)[C@H](Cc2ccccc2)NC(=O)[C@@H](NC(=O)[C@H](CC(C)C)NC(C)=O)[C@@H](C)O)C(=O)N[C@@H](C)C(=O)N[C@@H](Cc2ccc(O)cc2)C(=O)N[C@@H](Cc2c[nH]c3ccccc23)C(=O)NC(C)(C)C(=O)N[C@@H](CCC(N)=O)C(=O)N[C@@H](CC(C)C)C(=O)N1)C(=O)N[C@@H](C)C(N)=O (single isomer, unassigned) [compound 390] |  |  |  |  |  | < 5
CC[C@H](C)[C@H](NC(=O)[C@H](C)NC(=O)[C@H](C)NC(=O)[C@]1(C)CCCC=CCCCCCC[C@@](C)(NC(=O)[C@H](Cc2ccccc2)NC(=O)[C@@H](NC(=O)[C@H](CCC(=O)O)NC(C)=O)[C@@H](C)O)C(=O)N[C@@H](CCC(=O)O)C(=O)N[C@@H](Cc2c[nH]cn2)C(=O)N[C@@H](Cc2c[nH]c3ccccc23)C(=O)N[C@@H](C)C(=O)N[C@@H](CCC(N)=O)C(=O)N[C@@H](CC(C)C)C(=O)N1)C(=O)N[C@H](C)C(N)=O (single isomer, unassigned) [compound 175] |  |  |  |  |  | > 30
CC(=O)N[C@@H](CC(C)C)C(=O)N[C@H](C(=O)N[C@@H](Cc1ccccc1)C(=O)N[C@]1(C)CCCCCC/C=C\CCC[C@@](C)(C(=O)N[C@@H](CO)C(=O)N[C@@H](C)C(=O)N[C@@H](C)C(N)=O)NC(=O)[C@H](CCC(C)C)NC(=O)[C@H](CCC(N)=O)NC(=O)[C@H](C)NC(=O)[C@H](Cc2c[nH]c3ccccc23)NC(=O)[C@H](Cc2ccc(O)cc2)NC(=O)[C@H](C)NC1=O)[C@@H](C)O [compound 114] |  |  |  |  |  | 5 to 15
CC(=O)N[C@@H](CC(C)C)C(=O)N[C@H](C(=O)N[C@@H](Cc1ccccc1)C(=O)N[C@]1(C)CCCCCCC=CCCC[C@@](C)(C(=O)N[C@@H](C)C(=O)N[C@H](C(=O)NCC(N)=O)C(C)C)NC(=O)[C@H](CC(C)C)NC(=O)[C@H](CCC(N)=O)NC(=O)[C@H](C)NC(=O)[C@H](Cc2c[nH]c3ccccc23)NC(=O)[C@H](Cc2ccc(O)cc2)NC(=O)[C@H](C)NC1=O)[C@@H](C)O (single isomer, unassigned) [compound 109] |  | 161 | 445 | 1221 | 1680 | < 5
CC(=O)N[C@@H](CCC(=O)O)C(=O)N[C@H](C(=O)N[C@@H](Cc1ccccc1)C(=O)N[C@]1(C)CCCCCCC=CCCC[C@@](C)(C(=O)N[C@@H](C)C(=O)N[C@@H](C)C(=O)N[C@@H](C)C(=O)N[C@@H](C)C(=O)N[C@@H](C)C(=O)N[C@H](C)C(N)=O)NC(=O)[C@H](CC(C)C)NC(=O)[C@H](CCC(N)=O)NC(=O)[C@H](C)NC(=O)[C@H](Cc2c[nH]c3ccccc23)NC(=O)[C@H](Cc2ccc(O)cc2)NC(=O)[C@H](CCC(=O)O)NC1=O)[C@@H](C)O (single isomer, unassigned) [compound 341] | 1325.62 | 1873 | 2039.75 | 2360.75 | 2574 | 15 to 30
CC(=O)N[C@@H](CC(C)C)C(=O)N[C@H](C(=O)N[C@@H](Cc1ccccc1)C(=O)N[C@]1(C)CCCCCCC=CCCC[C@@](C)(C(=O)N[C@@H](C)C(=O)N[C@@H](C)C(=O)N[C@@H](Cc2ccccc2)C(=O)N[C@H](C)C(N)=O)NC(=O)[C@H](CC(C)C)NC(=O)[C@H](CCC(N)=O)NC(=O)[C@H](C)NC(=O)[C@H](Cc2c[nH]c3ccccc23)NC(=O)[C@H](Cc2ccc(O)cc2)NC(=O)[C@H](CCC(=O)O)NC1=O)[C@@H](C)O (single isomer, unassigned) [compound 219] |  |  |  |  |  | 5 to 15
CC(=O)N[C@@H](CC(C)C)C(=O)N[C@H](C(=O)N[C@@H](Cc1ccccc1)C(=O)N[C@]1(C)CCCCCCC=CCCC[C@@](C)(C(=O)N[C@@H](CO)C(=O)N[C@@H](Cc2c[nH]c3ccccc23)C(=O)N[C@@H](C)C(N)=O)NC(=O)[C@H](CC(C)C)NC(=O)[C@H](CCC(N)=O)NC(=O)[C@H](C)NC(=O)[C@H](Cc2c[nH]c3ccccc23)NC(=O)[C@H](Cc2ccc(O)cc2)NC(=O)[C@H](C)NC1=O)[C@@H](C)O (single isomer, unassigned) [compound 120] |  |  |  |  |  | < 5
CC(=O)N[C@@H](CC(C)C)C(=O)N[C@H](C(=O)N[C@@H](Cc1ccccc1)C(=O)N[C@]1(C)CCCCCCC=CCCC[C@@](C)(C(=O)N[C@@H](C)C(=O)N[C@@H](C)C(=O)N[C@@H](C)C(=O)N[C@@H](C)C(=O)N[C@@H](C)C(=O)N[C@H](C)C(N)=O)NC(=O)[C@H](CC(C)C)NC(=O)[C@H](CCC(N)=O)NC(=O)[C@H](C)NC(=O)[C@H](Cc2c[nH]c3cc(Cl)ccc23)NC(=O)[C@H](Cc2ccc(O)cc2)NC(=O)[C@H](C)NC1=O)[C@@H](C)O (single isomer, unassigned) [compound 338] |  |  |  |  |  | < 5
CCCC[C@H](NC(=O)[C@H](C)NC(=O)[C@H](C)NC(=O)[C@]1(C)CCCCCCCCCCC[C@@](C)(NC(=O)[C@H](Cc2ccccc2)NC(=O)[C@@H](NC(=O)[C@H](CC(C)C)NC(C)=O)[C@@H](C)O)C(=O)N[C@@H](C)C(=O)N[C@@H](Cc2ccc(O)cc2)C(=O)N[C@@H](Cc2c[nH]c3ccccc23)C(=O)N[C@@H](C)C(=O)N[C@@H](CCC(N)=O)C(=O)N[C@@H](CC(C)C)C(=O)N1)C(=O)N[C@@H](C)C(N)=O [compound 444] |  |  |  |  |  | < 5
CC(=O)N[C@@H](CC(C)C)C(=O)N[C@H](C(=O)N[C@@H](Cc1ccccc1)C(=O)N[C@]1(C)CCCCCCC=CCCC[C@@](C)(C(=O)N[C@@H](CO)C(=O)N[C@@H](C)C(=O)N[C@@H](C)C(N)=O)NC(=O)[C@H](CC2CCCCC2)NC(=O)[C@H](CCC(N)=O)NC(=O)[C@H](C)NC(=O)[C@H](Cc2c[nH]c3ccccc23)NC(=O)[C@H](Cc2ccc(O)cc2)NC(=O)[C@H](CCC(=O)O)NC1=O)[C@@H](C)O (single isomer, unassigned) [compound 148] |  |  |  |  |  | 15 to 30
